The text below walks through data of article PMC8157854, “Radiosynthesis and Evaluation of Talazoparib and Its Derivatives as PARP-1-Targeting Agents” (Biomedicines, 2021).

Sequences of proteins named here, by UniProt entry; tags and fusion partners are left off.
UniProt P09874, whole entry: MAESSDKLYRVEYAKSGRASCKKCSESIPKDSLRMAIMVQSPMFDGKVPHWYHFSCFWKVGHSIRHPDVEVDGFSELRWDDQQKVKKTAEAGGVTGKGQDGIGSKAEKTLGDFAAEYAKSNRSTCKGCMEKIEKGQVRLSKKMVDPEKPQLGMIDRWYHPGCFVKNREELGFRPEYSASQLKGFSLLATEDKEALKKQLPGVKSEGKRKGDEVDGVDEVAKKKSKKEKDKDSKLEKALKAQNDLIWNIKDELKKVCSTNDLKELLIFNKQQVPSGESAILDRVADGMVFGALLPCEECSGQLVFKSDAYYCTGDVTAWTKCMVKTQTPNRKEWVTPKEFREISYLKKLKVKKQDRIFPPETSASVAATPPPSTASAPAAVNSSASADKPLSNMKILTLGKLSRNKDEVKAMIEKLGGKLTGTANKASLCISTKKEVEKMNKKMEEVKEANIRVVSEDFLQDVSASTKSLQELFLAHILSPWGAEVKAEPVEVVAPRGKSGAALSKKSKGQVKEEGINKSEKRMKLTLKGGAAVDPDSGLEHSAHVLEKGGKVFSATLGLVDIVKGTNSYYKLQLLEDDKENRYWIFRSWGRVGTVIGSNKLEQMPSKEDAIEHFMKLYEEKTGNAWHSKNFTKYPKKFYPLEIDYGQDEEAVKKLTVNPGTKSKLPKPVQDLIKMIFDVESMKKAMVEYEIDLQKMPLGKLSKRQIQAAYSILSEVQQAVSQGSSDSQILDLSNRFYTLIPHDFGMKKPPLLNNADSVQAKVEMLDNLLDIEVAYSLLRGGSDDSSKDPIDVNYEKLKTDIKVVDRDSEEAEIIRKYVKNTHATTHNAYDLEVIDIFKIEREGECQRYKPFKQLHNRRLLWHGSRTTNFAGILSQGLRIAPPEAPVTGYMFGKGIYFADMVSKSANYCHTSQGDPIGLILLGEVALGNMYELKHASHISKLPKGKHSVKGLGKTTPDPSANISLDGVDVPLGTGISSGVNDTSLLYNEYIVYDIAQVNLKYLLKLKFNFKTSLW

The target in the assay is PARP-1 (Homo sapiens, UniProt P09874). In words: Radioligand cell uptake saturation analysis of [3H]WC-DZ in U251MG cells. It is filed as binding. Conditions: Mean ± SEM, n = 3.

Each structure is given as a SMILES string.

Regarding `[3H]c1ccc(-c2nc3cccc4c3n2CCNC4=O)cc1`, the “Hill coefficient nH” value (Hill plot) came to 1.07 ± 0.18. Also, under “Scatchard analysis”, the “Bmax (binding density)” value is on record as 2382 ± 318 fmol/mg protein.
